6 compounds from patent US20250197409A1 can be followed below.

Sequences of proteins named here, by UniProt entry; tags and fusion partners are left off.
UniProt P10275, whole entry T878A: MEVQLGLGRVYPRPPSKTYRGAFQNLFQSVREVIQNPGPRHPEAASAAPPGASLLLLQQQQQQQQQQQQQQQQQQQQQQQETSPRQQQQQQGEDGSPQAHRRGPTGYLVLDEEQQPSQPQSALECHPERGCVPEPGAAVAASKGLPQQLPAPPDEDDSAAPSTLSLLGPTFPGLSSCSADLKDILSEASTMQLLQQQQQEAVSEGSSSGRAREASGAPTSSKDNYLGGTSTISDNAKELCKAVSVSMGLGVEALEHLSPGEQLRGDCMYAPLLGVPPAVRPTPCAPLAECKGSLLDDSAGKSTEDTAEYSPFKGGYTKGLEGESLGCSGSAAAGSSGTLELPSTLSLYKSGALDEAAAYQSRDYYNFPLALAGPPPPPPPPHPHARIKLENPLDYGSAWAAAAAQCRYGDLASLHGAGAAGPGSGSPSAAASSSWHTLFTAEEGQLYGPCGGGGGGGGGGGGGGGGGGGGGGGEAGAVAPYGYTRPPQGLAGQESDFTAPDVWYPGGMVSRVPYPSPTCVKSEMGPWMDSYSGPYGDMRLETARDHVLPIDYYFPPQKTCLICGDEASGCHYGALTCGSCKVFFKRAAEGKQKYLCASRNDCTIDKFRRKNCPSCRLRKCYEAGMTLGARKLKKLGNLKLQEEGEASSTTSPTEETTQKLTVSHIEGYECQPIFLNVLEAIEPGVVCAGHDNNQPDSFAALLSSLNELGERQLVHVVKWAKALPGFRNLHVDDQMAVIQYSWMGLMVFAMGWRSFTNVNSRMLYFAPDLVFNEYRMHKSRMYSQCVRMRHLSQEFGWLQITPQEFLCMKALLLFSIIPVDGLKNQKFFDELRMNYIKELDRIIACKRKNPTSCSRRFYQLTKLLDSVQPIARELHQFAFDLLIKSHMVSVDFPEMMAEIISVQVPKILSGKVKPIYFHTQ
UniProt Q96SW2, whole entry partner: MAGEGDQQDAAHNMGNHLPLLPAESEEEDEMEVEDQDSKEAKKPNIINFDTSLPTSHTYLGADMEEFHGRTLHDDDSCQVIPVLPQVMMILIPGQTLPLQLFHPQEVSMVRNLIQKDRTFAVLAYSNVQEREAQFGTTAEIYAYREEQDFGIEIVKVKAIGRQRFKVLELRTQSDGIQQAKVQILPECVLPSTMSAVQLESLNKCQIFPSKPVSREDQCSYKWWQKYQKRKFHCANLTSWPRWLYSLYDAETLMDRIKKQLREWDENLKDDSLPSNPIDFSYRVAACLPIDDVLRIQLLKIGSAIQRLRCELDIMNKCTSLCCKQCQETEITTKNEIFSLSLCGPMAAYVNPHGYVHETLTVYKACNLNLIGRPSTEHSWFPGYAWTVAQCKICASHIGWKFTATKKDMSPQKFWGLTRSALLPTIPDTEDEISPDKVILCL

The target of the assay is androgen receptor (Homo sapiens, UniProt P10275, T878A). Nature of the assay: Androgen receptor degradation assay using Western blot analysis. In kind it is cell-based. The note with it: LNCaP.FGC cells; for DC50: read-out: AR DC50 (concentration needed for 50% AR degradation), serial 10x dilutions from 100 nM; for Androgen Receptor Remaining (%): 100 nM, 24 hr, normalized to GAPDH, untreated cells = 100%. For orientation: Immunoblotting shows a protein as a band on a membrane.

The structures appear in SMILES notation.

Take `CCn1c2c(c3ccc(OCCCCOC4CCN(c5ccc(C(=O)N[C@H]6CC[C@H](N(C)c7ccc(C#N)c(Cl)c7)CC6)nn5)CC4)cc31)C(=O)N(C1CCC(=O)NC1=O)C2=O` (stereo partly drawn): the DC50 lay within 25 to 100 nM.
As to `CCn1c2c(c3ccc(OCCCCN4CCN(c5ccc(C(=O)N[C@H]6CC[C@H](Oc7ccc(C#N)c(Cl)c7)CC6)nn5)[C@H](C)C4)cc31)C(=O)N(C1CCC(=O)NC1=O)C2=O` (stereo partly drawn), the “Androgen Receptor Remaining (%)” value stood at 40% and the DC50 is 25 to 100 nM.
In the case of `CCn1c2c(c3ccc(OCCCOC4CC5(CCN(c6ccc(C(=O)N[C@H]7CC[C@H](N(C)c8ccc(C#N)c(Cl)c8)CC7)nn6)CC5)C4)cc31)C(=O)N(C1CCC(=O)NC1=O)C2=O` (stereo partly drawn), the DC50 fell in the range of 25 to 100 nM.
Still for that read-out and setting: the figure for `Cn1c2c(c3ccc(OC4CCN(CC5CCN(c6ccc(C(=O)N[C@H]7CC[C@H](Oc8ccc(C#N)c(Cl)c8)CC7)nn6)C5)CC4)cc31)C(=O)N(C1CCC(=O)NC1=O)C2=O` (stereo partly drawn) is 10 to 25 nM.
On to `CCn1c2c(c3ccc(OCCCCN4CCC5(CC4)CN(c4ccc(C(=O)N[C@H]6CC[C@H](N(C)c7ccc(C#N)c(Cl)c7)CC6)nn4)C5)cc31)C(=O)N(C1CCC(=O)NC1=O)C2=O` (stereo partly drawn), for which the “Androgen Receptor Remaining (%)” value worked out at 39% and the DC50 is below 10 nM.
Take `CCn1c2c(c3ccc(OCCCN4CCCN(c5ccc(C(=O)N[C@H]6CC[C@H](N(C)c7ccc(C#N)c(Cl)c7)CC6)nn5)CC4)cc31)C(=O)N(C1CCC(=O)NC1=O)C2=O` (stereo partly drawn): the “Androgen Receptor Remaining (%)” value is 29% and the DC50 lay in the range of 10 to 25 nM.
